# Results reported in article PMC6270201, “Eco-Friendly Synthesis and Antiproliferative Evaluation of Some Oxygen Substituted Diaryl Ketones” (Molecules, 2013).
# Test system: Balb/3T3 fibroblasts vs T24, DU-145 and MCF7 tumor cells
# Assay: Mean selective index, fibroblasts versus tumor cells
# Assay type: cell-based
# Details: EC50 values fibroblasts/EC50 values tumor cells
# Procedure: These values were calculated from their effects on MTT reduction in three cancer cell lines and Balb/3T3 non transformed mouse fibroblasts as a function of their concentration during 48 h of incubation.
structure (smiles),measurement,value
"CO[C@@]12[C@H](COC(N)=O)C3=C(C(=O)C(C)=C(N)C3=O)N1C[C@@H]1N[C@@H]12 [MIT, mitomycin C, reference compound]",MSI: Mean Selective Index,1.39
